Results published in patent US20260216206A1 (MEDINCELL SA, priority 2023, published 2026).

Test: Open-label SAD and MAD study, pharmacokinetics in healthy subjects and patients (Example 5)
Assay type: in vivo, humans
Experimental: This study was an open-label, SAD, and MAD study to evaluate the safety, tolerability, and PK of Formulation 1 in healthy subjects and patients with a diagnosis of schizophrenia or schizoaffective disorder. Healthy subjects received subtherapeutic Formulation 1 doses of up to 105 mg and patients received therapeutic doses of up to 566 mg. […] Subjects and patients who met screening eligibility were assigned to 1 of 8 active cohorts, or the Vehicle Cohort, as detailed in Table 5.1 below.
All cohorts included assessments of safety, tolerability, and intensive PK sampling.
Except for the starting dose of 70 mg, the study followed an adaptive design in which the decision to dose-escalate with Formulation 1 was based on a review of the PK and safety data from the preceding lower dose of Formulation 1.
An extensive PK collection scheme was applied following the last oral dose to fully characterize the PK at steady-state.
In multiple-dose cohorts, the 3 doses of Formulation 1 were administered on day 1, day 29 (week 4) and day 57 (week 8), respectively.

## Cc1cc2c(s1)Nc1ccccc1N=C2N1CCN(C)CC1 [olanzapine, 2-methyl-4-(4-methyl-1-piperazinyl)-10H-thieno[2,3-b][1,5]benzodiazepine]
Cohorts 1, 2, 3, 4, 5 and 6, AUC0-∞ for Formulation 1, AUC0-tau (28 days) for oral olanzapine
  Dose-normalized AUC, Geo LS Mean: 42.09 [h*ng/mL]/mg
Cohorts 4, 5 and 6, AUC0-∞ for Formulation 1, AUC0-tau (28 days) for oral olanzapine
  Dose-normalized AUC, Geo LS Mean: 38.12 [h*ng/mL]/mg
Cohorts 8 and 9, AUC0-tau 3rd dosing interval for Formulation 1, AUC0-tau28 d for oral olanzapine
  Dose-normalized AUC, Geo LS Mean: 49.25 [h*ng/mL]/mg
